Test results reported in patent US10913738B2 (BRISTOL-MYERS SQUIBB COMPANY, priority 2017, dated 2021).

Test system: MLKL phosphorylation in HT29-L23 human colorectal adenocarcinoma cells
Assay: MLKL Phosphorylation High-Content Assay
Format: cell-based
Conditions: read-out: pMLKL cell activity >200 nM, x marks IC50 class >200 nM

IC50: > 200 nM
Compound: COc1ncc(-c2ccn3nc(N)nc3c2)cc1C(=O)NCc1ccc(F)cc1OC1CCOC1 (stereo not shown)
